For 1 substance, Km results are on record in paper PMC2704374, “A Multidrug ABC Transporter with a Taste for Salt” (PLoS ONE, 2009).

In this data set the test system is Cl. The data set is described as follows: purified protein. The settings on record: labelled compound; deltapH-driven transport (interior alkaline), pH 7.6 in / pH 6.8 out; no ATP.

On to “LmrA (Lactococcus cremoris subsp. cremoris MG1363)”, for which the Km was determined as 17.9 ± 3.7 µM.

One may read the Km as the concentration of substrate that gives half-maximal velocity.
